Measured values published in paper PMC4188581, “Break CDK2/Cyclin E1 Interface Allosterically with Small Peptides” (PLoS ONE, 2014).

Biological target: CDK2 (Homo sapiens, UniProt P24941)
Experiment: Surface Plasmon Resonance (SPR) peptide binding assay
Settings: for Kd: without ATP

Kd [µM] | SMILES | Ka1 (with 60 µM ATP, two-state model) [M⁻¹ s⁻¹]
0.47 | CC(C)C[C@H](NC(=O)[C@H](C)NC(=O)[C@H](C)NC(=O)[C@@H](N)CC(=O)O)C(=O)N[C@H](C(=O)O)[C@@H](C)O [DAALT, NH2-D-A-A-L-T-OH] | 
1.4 | CC(C)C[C@H](NC(=O)[C@H](C)NC(=O)[C@H](C)NC(=O)[C@@H](N)[C@@H](C)O)C(=O)N[C@@H](CO)C(=O)O [TAALS, reference compound] | 

SMILES | Kd [µM] | Ka1 (with 60 µM ATP, two-state model) [M⁻¹ s⁻¹]
CC(C)C[C@H](NC(=O)[C@H](C)NC(=O)[C@H](C)NC(=O)[C@@H](N)Cc1ccc(O)cc1)C(=O)N[C@@H](CCC(N)=O)C(=O)O [YAALQ, NH2-Y-A-A-L-Q-OH] | 98 | 100.9 ± 1.5
